System: HCT-8 host cells (Hs18S)
Conditions: primary screening at 10 uM; for Cytotoxicity (%): from Hs18S ΔCT; for Hs18S ΔCT: treated vs control

Row | Substance | Cytotoxicity (%) | Hs18S ΔCT
1 | ISOTECTORIGENIN, 7-METHYL ETHER | 3.0 | 0.04
2 | MONENSIN SODIUM (monensin A is shown) | 15.7 | 0.25

— paper PMC6736568, “Discovery of Novel Anti-cryptosporidial Activities From Natural Products by in vitro High-Throughput Phenotypic Screening” (Frontiers in Microbiology, 2019)
